Tested on: interferon regulatory factor 3 (IRF3) in HCT116-Dual cells
Assay: HCT116-Dual Cell Luciferase Assay (ISG54 promoter, IRF3 activity)
Settings: ENPP1 inhibitor usually 10 μM plus cGAMP 10 μM, 48 hours, Lucia luciferase; tested form: hydrochloride
Text: HCT116-Dual™ cells express genes encoding luciferase secreted under the control of the interferon-stimulated gene 54 (ISG54) promoter along with five interferon-stimulated response elements. The HCT116-Dual™ cell line was used to measure and monitor the activity of interferon regulatory factor 3 (IRF3), which induces production of type I interferon and relates to downstream signaling, and Lucia secreted in the culture medium was used to generate luminescence in a luciferase reaction.
HCT116-Dual™ cells were cultured at 2×10^4 cells/well (93.4 μL) in a 96-well plate for one day in a DMEM medium containing 10% FBS and 25 mM HEPES (pH 7.2-7.5). The cells were treated with 3.3 μL of ENPP1 inhibitor (usually 10 μM) and then 3.3 μL of cGAMP (10 μM) to set the final volume to 100 μL (The final fraction of DMSO was 0.1%). The cells treated with ENPP1 inhibitor and cGAMP were cultured at 37° C. for 48 hours and 50 μL of Quanti-Luc reaction solution was added to 20 μL of cell culture medium to measure luciferase activity. The increase in interferon regulatory factor 3 (IRF3) by the compound compared to cGAMP was determined as fold.

## CCNCc1ccc(-c2ccnc3[nH]c(=O)ccc23)c(F)c1
  Cellular activity: increase in IRF3 by the compound compared to cGAMP, as fold: A (>2)
